Test system: MCF7 breast cancer cells
Conditions: metabolite formed from cyclophosphamide by CYP3A4 in solgel matrices

Substance: 4-hydroxycyclophosphamide
- toxicity to MCF7 breast cancer cells: toxic

Source: patent US7846747B2, “Biocatalytic solgel microarrays” (Rensselaer Polytechnic Institute, priority 2001, dated 2010)
